Source: ChEMBL document CHEMBL1759923, “Preparation, in vitro screening and molecular modelling of symmetrical bis-quinolinium cholinesterase inhibitors--implications for early myasthenia gravis treatment” (Bioorg Med Chem Lett, 2011)

Protein sequences, listed by entry. Tags and fused reporters are not part of them. Lines headed by an entry give the natural chain unless they say otherwise; changes in a name come on top.
UniProt P06276, whole entry, looked up: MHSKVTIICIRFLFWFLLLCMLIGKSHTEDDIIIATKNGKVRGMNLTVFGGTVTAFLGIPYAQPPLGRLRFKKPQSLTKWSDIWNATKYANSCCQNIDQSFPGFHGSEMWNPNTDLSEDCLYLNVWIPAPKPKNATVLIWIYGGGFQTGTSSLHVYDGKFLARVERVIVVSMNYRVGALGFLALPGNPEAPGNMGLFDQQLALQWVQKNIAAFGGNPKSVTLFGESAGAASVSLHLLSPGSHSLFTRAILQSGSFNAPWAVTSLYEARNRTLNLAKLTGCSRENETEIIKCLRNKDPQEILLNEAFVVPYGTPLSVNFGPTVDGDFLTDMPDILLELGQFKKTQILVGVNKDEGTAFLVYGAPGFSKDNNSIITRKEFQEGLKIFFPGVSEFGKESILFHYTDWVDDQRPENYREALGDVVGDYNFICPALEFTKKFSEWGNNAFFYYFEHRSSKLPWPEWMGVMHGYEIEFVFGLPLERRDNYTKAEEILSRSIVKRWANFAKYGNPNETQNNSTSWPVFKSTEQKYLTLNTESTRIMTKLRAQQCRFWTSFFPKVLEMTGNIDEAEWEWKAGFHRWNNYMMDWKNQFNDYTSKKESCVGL
UniProt P22303: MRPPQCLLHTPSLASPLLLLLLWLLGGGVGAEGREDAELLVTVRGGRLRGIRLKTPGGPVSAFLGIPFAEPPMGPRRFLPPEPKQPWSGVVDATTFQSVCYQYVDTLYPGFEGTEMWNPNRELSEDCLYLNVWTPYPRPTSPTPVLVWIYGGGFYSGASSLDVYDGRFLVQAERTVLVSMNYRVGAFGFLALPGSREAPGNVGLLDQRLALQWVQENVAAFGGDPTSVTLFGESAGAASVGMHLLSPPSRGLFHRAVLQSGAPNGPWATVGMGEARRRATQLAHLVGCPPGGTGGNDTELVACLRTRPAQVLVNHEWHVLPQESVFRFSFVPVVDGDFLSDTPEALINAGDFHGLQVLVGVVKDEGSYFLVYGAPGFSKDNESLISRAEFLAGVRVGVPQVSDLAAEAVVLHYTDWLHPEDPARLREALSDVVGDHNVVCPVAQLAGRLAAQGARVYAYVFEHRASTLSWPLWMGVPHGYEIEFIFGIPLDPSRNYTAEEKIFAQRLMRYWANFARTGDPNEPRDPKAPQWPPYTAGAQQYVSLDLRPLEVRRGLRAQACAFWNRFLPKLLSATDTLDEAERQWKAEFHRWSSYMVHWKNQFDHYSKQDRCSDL

Target: Cholinesterases; ACHE & BCHE (Homo sapiens) (UniProt P06276+P22303)
Experiment: Selectivity index, ratio of IC50 for human erythrocytes recombinant AChE to IC50 for human plasmatic BChE

Row | Structure (SMILES) | Selectivity Index
1 | C=CC[N+](C)(C)c1ccc(CCC(=O)CCc2ccc([N+](C)(C)CC=C)cc2)cc1 | 11800
2 | c1ccc2c(c1)ccc[n+]2CCCCCCCCCC[n+]1cccc2ccccc21 | 100
3 | CCN(CC)C(C)CN1c2ccccc2Sc2ccccc21 (stereo not drawn) | 0.002
